Experiment: Solubility in water, shaken flask method

Substance | solubility in water at 20° C.
Lenalidomide P-Toluene Sulfonate | about 13 mg/ml
Lenalidomide Benzene Sulfonate | about 18 mg/ml

From patent US8686153B2, “Lenalidomide salts” (Synthon B.V., priority 2009, dated 2014)
